Source: patent publication US8207190B2, “Enantiomer of tenatoprazole and the use thereof in therapy” (Mitsubishi Tanabe Pharma Corporation, priority 2003, dated 2012)

Tested on: CYP2C19 and CYP3A4
Assay: metabolic pathways of the tenatoprazole isomers
Conditions: cytochrome pathways that metabolise the isomer

Compound	metabolic pathway
COc1ccc2[nH]c([S+]([O-])Cc3ncc(C)c(OC)c3C)nc2n1 (single isomer, unassigned; (-)) [(−) enantiomer]	two pathways, i.e. CYP2C19 and CYP3A4
COc1ccc2[nH]c([S+]([O-])Cc3ncc(C)c(OC)c3C)nc2n1 (single isomer, unassigned; (+)) [(+) form]	one preponderant pathway, CYP2C19
